One may read the inhibition as the relative decrease from the control value, in per cent.

Sequences of proteins named here, by UniProt entry; tags and fusion partners are left off.
UniProt P14416, whole entry, looked up: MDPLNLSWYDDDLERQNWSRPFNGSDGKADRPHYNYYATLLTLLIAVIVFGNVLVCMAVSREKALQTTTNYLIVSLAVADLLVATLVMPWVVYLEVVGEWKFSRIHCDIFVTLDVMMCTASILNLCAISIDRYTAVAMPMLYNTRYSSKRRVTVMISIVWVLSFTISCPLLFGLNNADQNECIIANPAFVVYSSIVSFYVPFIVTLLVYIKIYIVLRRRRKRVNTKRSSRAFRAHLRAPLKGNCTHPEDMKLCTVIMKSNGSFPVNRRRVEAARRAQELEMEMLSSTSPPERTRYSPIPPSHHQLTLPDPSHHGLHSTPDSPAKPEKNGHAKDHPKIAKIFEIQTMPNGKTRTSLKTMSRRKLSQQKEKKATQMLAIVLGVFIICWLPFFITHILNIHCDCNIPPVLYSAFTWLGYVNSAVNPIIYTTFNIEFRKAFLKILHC

Consider 35 molecules from PubChem BioAssay AID485344 (National Center for Advancing Translational Sciences (NCATS), 2010).

The structures appear in SMILES notation. The list shows a part of the results, in another mix than the full data. Active and inactive are the calls of the source. Rule as the data show it: active = inhibition above about 30%; inactive = below that, where a call was filed.

This assay deals with D(2) dopamine receptor (Homo sapiens) (UniProt P14416). The assay can be described thus: HTS Assay for Allosteric Antagonists of the Human D2 Dopamine Receptor: Primary Screen for Antagonists. Also: 0% is about no effect. The note with it: HEK293 TREx D2 cells, calcium flux, dopamine EC80; at 10 µM; hits give high values. Put shortly:
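Measurement of antagonist activity uses fluorescent calcium dye in inducible HEK293 T-REx D2 cells: 10 s baseline, compound addition with 180 s read, EC80 dopamine addition with a further 180 s read.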
In general terms: Calcium assays in cells follow changes in intracellular calcium, usually with a dye or a luminescent sensor.
As for `O=P(Nc1nccs1)(Oc1ccccc1)Oc1ccccc1`, the inhibition is inactive: -4.25%.

As for `O=P(Nc1nccs1)(c1ccccc1)c1nc2ccccc2s1` (stereo not given), the inhibition is inactive: 1.29%.

As for `Nc1ccccc1[As](=O)(O)c1ccccc1`, the inhibition was inactive: 11.5%.

As for `O=C(O)COc1ccc([As](=O)(O)O)cc1[N+](=O)[O-]`, the inhibition was inactive: 14.5%.

For `NC(=O)Nc1ccc([As](=O)(O)O)cc1`, the inhibition is inactive: -2.88%.

Regarding `O=[N+]([O-])c1ccc2c(c1)nnn2O`, the inhibition was inactive: 9.88%.

In the case of `N#CCCN(C(=O)COC(=O)C(O)(c1ccccc1)c1ccccc1)c1ccc(F)cc1`, the inhibition is inactive: -16.4%.

With `CN(C(=O)Cc1ccccc1)[C@@H]1CC[C@]2(CCCO2)C[C@H]1N1CCCC1`, the inhibition is inactive: -40.8%.

On to `CCOP1(=S)c2c(C)nn(CCC#N)c2N=C(c2ccc(F)cc2)N1C` (stereo not given), for which the inhibition is inactive: -11.4%.

`C[As](=O)(O)c1cccc(C(=O)O)c1`: the inhibition was inactive: 8.9%.

`O=[As](O)(c1ccc(O)cc1)c1ccccc1O`: the inhibition is inactive: -15.2%.

For the molecule `Cc1ccc2nc3c(c(C)c2c1)CC(C(Cl)Cl)S3` (stereo not given), the inhibition was active: 38%.

For `Cc1ccc(OP(=O)(Nc2ccc([N+](=O)[O-])cn2)Oc2ccc(C)cc2)cc1`, the inhibition was inactive: -7.5%.

On to `CC(C)c1ccc(OP(=O)(Nc2ccccn2)Oc2ccccc2F)cc1` (stereo not given), for which the inhibition is inactive: -9.39%.

For `CC(C)NC(=O)NP(=O)(Oc1ccccc1)Oc1ccccc1`, the inhibition was inactive: -4.44%.

Take `CCN(CC)C(=S)SC(NC=O)C(Cl)(Cl)Cl` (stereo not given): the inhibition is inactive: 0.428%.

As to `O=[N+]([O-])c1cc([N+](=O)[O-])c(-c2ccn[nH]2)s1`, the inhibition was inactive: 26.9%.

Consider `O=C(OC1CN2CCC1CC2)C12CC3CC(CC(C3)C1)C2` (stereo not given), for which the inhibition was inactive: 2.76%.

`Cc1cc(=O)[nH]c(N[N+](=O)[O-])n1`: the inhibition was inactive: -17%.

Regarding `Cc1c2c(nc3ccccc13)SC(C(Cl)Cl)C2` (stereo not given), the inhibition was inactive: -16.4%.

Consider `COc1ccc2nc(NP(=O)(c3ccccc3)c3ccccc3)sc2c1`, for which the inhibition is inactive: -17.6%.

For the molecule `COc1cc(I)ccc1[As](=O)(O)O`, the inhibition was inactive: -7.88%.

`COc1ccc(N/C(=N/P(=O)(N2CCOCC2)N2CCOCC2)N2CCOCC2)cc1`: the inhibition is inactive: -2.02%.

Take `COP1(=S)c2c(C)nn(CCC#N)c2N=C(c2ccc(F)cc2)N1C` (stereo not given): the inhibition was inactive: 14.6%.

For `O=C(COc1ccccc1)OC1CN2CCC1CC2` (stereo not given), the inhibition is inactive: 4.72%.

Consider `O=C(Nc1ccncc1[N+](=O)[O-])c1ccc([N+](=O)[O-])cc1[N+](=O)[O-]`, for which the inhibition was inactive: 7.17%.

On to `CCOC(=O)c1ccc(NC(=O)C(C)(CCl)SC)cc1` (stereo not given), for which the inhibition was inactive: 0.125%.

Turning to `O=C(OC1CN2CCC1CC2)c1cccc([N+](=O)[O-])c1` (stereo not given), the inhibition is inactive: 9.59%.

On to `CCC(C)N(CC(C)C)C(=S)SC(NC(C)=O)C(Cl)(Cl)Cl` (stereo not given), for which the inhibition is inactive: -4.86%.

Take `CCOC(=O)Nc1ccc([As](=O)(O)O)c(O)c1`: the inhibition is inactive: -6.93%.

`CCCCOc1ccc(C(=O)NCC2(N3CCCCC3)CCCCC2)cc1OC`: the inhibition was active: 30.7%.

With `Cc1cc(SC(NC(=O)c2ccccc2)C(Cl)(Cl)Cl)nc(C(C)C)n1` (stereo not given), the inhibition was inactive: 6.09%.

`CCOC(=O)Nc1cccc([As](=O)(O)O)c1`: the inhibition is inactive: 3.3%.

`O=[N+]([O-])c1ccc(Nc2ccc(Oc3ccc([N+](=O)[O-])cc3[N+](=O)[O-])cc2)c([N+](=O)[O-])c1`: the inhibition is inactive: -10.9%.

For the molecule `O=P(Nc1ccccn1)(c1cccc2ccccc12)c1cccc2ccccc12`, the inhibition is inactive: 1.11%.
